Data as given in publication PMC4594013 (Frontiers in Pharmacology, 2015).

Tests used:
[1] = system: OAT2 (sequence not given); details: expressed in S2 cells, ref Takeda et al., 2002; cited from earlier work
OAT2-tv1 = biological target: T1, OAT2-tv1 (Homo sapiens, UniProt Q9Y694); assay: Inhibition of [3H]penciclovir uptake into CHO-OAT2-tv1 cells; format: cell-based; details: test compound 1 mM, [3H]penciclovir ∼30 nM, 5 min
T1 sequence (Q9Y694 1-546 isoform Q9Y694-2): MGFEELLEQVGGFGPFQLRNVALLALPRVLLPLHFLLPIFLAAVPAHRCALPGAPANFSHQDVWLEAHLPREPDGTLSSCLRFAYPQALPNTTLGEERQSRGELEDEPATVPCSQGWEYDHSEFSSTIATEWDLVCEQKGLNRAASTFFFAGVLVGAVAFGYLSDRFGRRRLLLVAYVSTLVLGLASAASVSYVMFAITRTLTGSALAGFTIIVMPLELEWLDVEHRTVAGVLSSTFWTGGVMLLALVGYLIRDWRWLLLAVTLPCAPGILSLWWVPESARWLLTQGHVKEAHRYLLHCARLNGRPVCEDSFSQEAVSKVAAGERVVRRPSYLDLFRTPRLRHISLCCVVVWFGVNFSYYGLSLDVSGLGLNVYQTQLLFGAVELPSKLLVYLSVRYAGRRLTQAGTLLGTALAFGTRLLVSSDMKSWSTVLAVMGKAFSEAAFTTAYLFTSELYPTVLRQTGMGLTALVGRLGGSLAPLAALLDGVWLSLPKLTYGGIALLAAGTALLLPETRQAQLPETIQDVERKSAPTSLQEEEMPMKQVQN
Experimental: All experiments examining cellular radiolabeled compound uptake were conducted using cells grown to confluence in 24-well flat bottom plates. The transport solution consisted of WB (room temperature) containing radiolabeled compound and the uptake period for all experiments was at an initial rate time point of 5 min. [^3H]Penciclovir served as the probe OAT2 substrate. We also examined the uptake of [^3H]para-aminohippurate, [^3H]estrone-3-sulfate, [^14C]glutarate, [^14C]succinate, [^3H]paclitaxel, and [^3H]dehydroepiandrosterone sulfate by OAT2 since published studies indicate that they are substrates of the transport protein ([Sun et al., 2001]; [Kobayashi et al., 2005a]). […] For all cellular uptake experiments, the medium was aspirated and the cells were rinsed once with WB (0.3 ml). Following the uptake period, cells were washed three times with ice-cold WB (0.5 ml each wash). After aspirating the final wash the cells were lysed in 0.5 N NaOH/1% SDS (0.4 ml) for ∼30 min on an orbital shaker. 1 N HCl (0.2 ml) was then added to neutralize the NaOH, and the cell lysates (0.5 ml) were transferred to scintillation vials containing liquid scintillation cocktail (CytoScint ES, MP Biomedicals). Cellular radioactivity content was determined with a Beckman LS6500 liquid scintillation counter. Protein content was determined using the bicinchoninic acid method. […]

Row | Compound | transport by OAT2 [1] | cis-inhibition of penciclovir uptake (OAT2-tv1)
1 | Nc1nc(O)c2ncn(COC(CO)CO)c2n1 [ganciclovir] | failed to transport | 
2 | α-ketoglutarate |  | none of the Kreb’s cycle intermediates tested, including succinate and fumarate, cis-inhibited penciclovir uptake
